Data published in PubChem BioAssay AID540364 (The Scripps Research Institute Molecular Screening Center, 2011).
The list shows a part of the results, in another mix than the full data. The source made the active and inactive calls.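 Rule for the calls: active = activation above the average of all compounds screened plus 3 SD, cutoff fixed separately per campaign (cut at about 7.5% in these data); inactive = the rest.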

assay: GAA850 frataxin promoter reporter upregulation – cell-based, luciferase luminescence, HEK293 lucGAA850, primary screen (AID 540364); conditions: HEK293 lucGAA850 FXN promoter luciferase reporter, 24 h; at 6 µM; active compounds read high; percent of 10 µM SAHA response;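 note: 0% = DMSO wells and 100% = 10 µM SAHA wells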

Structure (SMILES) | activation
CN(C)P(=O)(N(C)C)n1c(Nc2ccccc2)nnc1-c1ccccc1 | inactive: 1.36%
O=P(Nc1nc2ccc(Cl)cc2s1)(c1ccccc1)c1ccccc1 | inactive: -0.09%
CCCC1OP(N)(=O)OCC1CC (stereo unspecified) | inactive: -2.58%
O=C(O)c1ccccc1[As](=O)(O)O | inactive: 0.92%
CC(=O)Nc1ccc([As](=O)(O)O)cc1 | inactive: -2.87%
CN(C(=O)Cc1ccc(Cl)c(Cl)c1)[C@H]1CCCC[C@@H]1N1CCCC1 | inactive: -1.92%
Cc1ccc(NP(=O)(Oc2ccccc2F)Oc2ccccc2F)nc1 | inactive: 0.02%
CCOP(=O)(Nc1ccccc1)OCC | inactive: 1.08%
Cc1cc(SC(NC(=O)c2ccc(F)cc2)C(Cl)(Cl)Cl)ncn1 (stereo unspecified) | inactive: -1.13%
Nc1cccc2ccc([As](=O)(O)O)cc12 | inactive: 0.83%
CCN(N=Nc1nonc1N)c1nonc1N | inactive: 3.92%
Cc1ccc(N/C(=N/P(=O)(N2CCOCC2)N2CCOCC2)N2CCOCC2)cc1 | inactive: -3.3%
CN(C(=O)Cc1ccc(Cl)c(Cl)c1)[C@H]1CCCC[C@H]1N1CCCC1 | inactive: -1.61%
NC(=O)c1cc([N+](=O)[O-])cc([N+](=O)[O-])c1N | inactive: -0.38%
Clc1ccc(Cl)c(NC2=NCC(CBr)S2)c1 (stereo unspecified) | inactive: 1.24%
CN1CCCC(OC(=O)C(c2ccccc2)c2ccccc2)C1 (stereo unspecified) | inactive: 0.48%
Cc1ccc(OP(=O)(Nc2nccs2)Oc2ccc(C)cc2)cc1 | inactive: 1.22%
COc1ccccc1OP(=O)(Nc1ccc(C)cn1)Oc1ccccc1OC | inactive: 0.66%
O=C(NC(Sc1ccncn1)C(Cl)(Cl)Cl)c1ccccc1 (stereo unspecified) | inactive: 0.35%
Oc1ccccc1CNc1ccccn1 | inactive: 0.09%
CC(C)CC(=O)NC(Sc1ccc(Cl)cc1)C(Cl)(Cl)Cl (stereo unspecified) | inactive: 2.97%
Nc1cc(N)c2nonc2c1[N+](=O)[O-] | inactive: 1.44%

Structure (SMILES) | activation
COc1ccc(C2=NCC(CBr)S2)cc1 (stereo unspecified) | inactive: 1.1%
O=[N+]([O-])c1cc([N+](=O)[O-])c(CCNc2ccccc2)c([N+](=O)[O-])c1 | inactive: -2.16%
CCc1nc2c(n1)c1c(non1O)c1c2no[n+]1[O-] | active: 12.3%
Cc1ccc(NP(=O)(Oc2ccccc2)Oc2ccccc2)nc1 | inactive: 3.39%
CC(=O)N1C2C3N(C(C)=O)C1C1N(C(C)=O)C(C(N1C(C)=O)N3C(C)=O)N2C(C)=O | inactive: 3.41%
O=[N+]([O-])c1cccc2n[nH]nc12 | inactive: 0.26%
CCN(/C(=N/P(=O)(N1CCOCC1)N1CCOCC1)N1CCOCC1)c1ccc(OC)cc1 | inactive: 2.28%
C[N+]1=C2C=CC=CC=C2SC12C([N+](=O)[O-])=CC([N+](=O)[O-])=C[C-]2[N+](=O)[O-] (stereo unspecified) | inactive: -13.6%
Nc1ccc([As](=O)(O)c2ccc(N)cc2)cc1 | inactive: 2.96%
c1cc(-c2nn[nH]n2)ccc1-c1nn[nH]n1 | inactive: -0.06%
CC1CCN(C(=O)Oc2c(Cl)cc(Cl)c3cccnc23)CC1 | inactive: 1.64%
CN(C)C(=O)OCCc1n(C)cc[n+]1C | inactive: 0.69%
CC(C)=N/N=C(\N)N[N+](=O)[O-] | inactive: 1.79%
CC(C)c1nc(Nc2ccccc2)n(P(=O)(N(C)C)N(C)C)n1 | inactive: -0.65%
O=P1(N(CCCl)CCCl)OCCCS1 (stereo unspecified) | inactive: 1.4%
O=C(Nc1cc([As](=O)(O)O)ccc1O)c1ccccc1 | inactive: 0.51%
O=[N+]([O-])c1ncn(CCn2ncnc2[N+](=O)[O-])n1 | inactive: 0.27%
CC(C)(C)C(=O)NC(Sc1ccncn1)C(Cl)(Cl)Cl (stereo unspecified) | inactive: -0.21%
O=C(O)CNc1ccc([As](=O)(O)O)cc1 | inactive: 2.35%
O=[N+]([O-])c1cccc(NC2=NCC(CBr)S2)c1 (stereo unspecified) | inactive: 2.62%
COC(=O)C1(C)COP(=O)(Nc2ccccc2)OC1 (stereo unspecified) | inactive: 0.13%
CN(C)C1(CNC(=O)c2ccc(Cl)c(S(N)(=O)=O)c2)CCCCC1 | inactive: 0.66%

Structure (SMILES) | activation
O=P(Nc1ccccn1)(c1ccc(Br)cc1)c1ccc(Br)cc1 | inactive: 0.23%
COc1ccc(N)c([N+](=O)[O-])c1[N+](=O)[O-] | inactive: 0.59%
C[C@H]1OP(=O)(Oc2ccccc2)[C@H](O)[C@H](O)[C@H]1N=[N+]=[N-] (stereo partly specified) | inactive: 0.89%
O=P(Nc1nc2ccccc2s1)(c1ccccc1)c1ccccc1 | inactive: 0.58%
O=[As](O)(c1ccccc1)c1ccc(O)cc1 | inactive: 1.91%
O=[N+]([O-])c1ncn(CCn2cnc([N+](=O)[O-])n2)n1 | inactive: 0.84%
CC(=O)NC(SC(=S)N(C)C)C(Cl)(Cl)Cl (stereo unspecified) | active: 11%
O=[N+]([O-])c1ccc(O)c(/C=N/Nc2ccc([N+](=O)[O-])cc2[N+](=O)[O-])c1 | inactive: -0.94%
O=C(OC1CN2CCC1CC2)c1cccc(Cl)c1 (stereo unspecified) | inactive: 0.2%
Nc1ccc([As](=O)(O)c2ccc([N+](=O)[O-])cc2)cc1 | inactive: 0.15%
C(Cc1nn[nH]n1)Cc1nn[nH]n1 | inactive: 0.7%
O=P(Nc1nccs1)(c1ccccc1)c1ccccc1 | inactive: 3.31%
CC(C)C(=O)NC(Sc1ccccc1)C(Cl)(Cl)Cl (stereo unspecified) | inactive: -1.54%
c1nnnn1CCn1cnnn1 | inactive: 2.08%
CCOc1ccc(C2=NCC(CBr)S2)cc1 (stereo unspecified) | inactive: -0.51%
O=P1(Nc2nc3ccc(Cl)cc3s2)COc2ccccc2O1 (stereo unspecified) | inactive: 1.37%
CC(C)(C)C(=O)NC(Sc1ccccc1)C(Cl)(Cl)Cl (stereo unspecified) | inactive: -0.11%
CCc1cc(O)c([N+](=O)[O-])c(C)c1[N+](=O)[O-] | inactive: 0.93%
C[C@@H]1C=CCP(=O)(Oc2ccccc2)O1 (stereo partly specified) | inactive: 2.72%
C[C@H]1OP(=O)(Oc2ccccc2)C[C@@H]2O[C@@H]21 (stereo partly specified) | inactive: -0.08%
Cc1ccccc1CN(C)C(=O)COC(=O)C(O)(c1ccccc1)c1ccccc1 | inactive: -1.15%
COC(=O)C1(C)COP(=O)(NCc2ccccc2)OC1 (stereo unspecified) | inactive: -2.24%
